# Yeast mating assay 2: variants of the scFv Ab-91

Source: Engelhart et al. 2022 (doi:10.1038/s41597-022-01779-4), MIT Lincoln Laboratory and A-Alpha Bio; data file from the FLAb repository.

Binding partner: SARS-CoV-2 spike HR2 peptide, sequence PDVDLGDISGINAS.

Each scFv is VL, a 15-residue (Gly4Ser)3 linker, VH, as in the parent Ab-91, and differs from it in the CDRs of the heavy chain only.
VL: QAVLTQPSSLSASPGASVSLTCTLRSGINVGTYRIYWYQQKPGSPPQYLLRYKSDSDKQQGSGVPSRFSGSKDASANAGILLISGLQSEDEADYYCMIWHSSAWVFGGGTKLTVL
VH: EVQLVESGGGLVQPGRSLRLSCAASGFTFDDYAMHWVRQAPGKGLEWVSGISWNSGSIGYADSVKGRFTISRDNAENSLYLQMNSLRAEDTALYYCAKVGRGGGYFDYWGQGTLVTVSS

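The starting antibody came from a phage panning campaign against this peptide. Library AAYL51 holds single substitutions and randomly drawn double and triple substitutions in the CDRs. The scFvs were displayed on barcoded MATa yeast, the peptide on MATalpha yeast. Binding brings cells together so that they mate, and sequencing counts the barcode pairs among the diploids. Each replicate has its own calibration line, from reference interactions of the BCL2 family. Each pool was mated in three replicate cultures.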

Changes read parent residue, position, new residue, counted from the first residue of the VH shown.
The read-out is the apparent dissociation constant on a log10 scale (nM): the lower, the stronger.
Replicates are averaged; those with no signal do not enter the mean.
"n.d." means that the variant was in the library but no mating with the target was seen in that replicate; the authors take this as a sign of poor binding, and no number exists.
As a blank, each scFv also met three strains without target: over library AAYL51, 21% of these pairings were detected, typically at 4.54 and seldom below 3.26. For each scFv, signals with the empty controls are counted beside the result, with their mean in brackets.
For reference, the parent read 1.86 as the reference entry and 0.88 as a member of this library.

changes	log10 Kd, replicates	mean, log10 nM	control signals
G59E V99A G104A	3.50 / 4.25 / 4.31	4.02	1 of 9 (4.22)
M34V G100I Y108R	n.d. / n.d. / n.d.	n.d.	0 of 9
G56V R101W G103W	4.16 / n.d. / n.d.	4.16	2 of 9 (5.20)
F27T I51D D107K	n.d. / 5.72 / n.d.	5.72	2 of 9 (5.03)
G56Q G103T D107H	1.00 / 1.09 / 0.57	0.89	1 of 9 (5.23)
F29N H35S S57Q	3.64 / n.d. / n.d.	3.64	0 of 9
D62P V99S	3.62 / n.d. / n.d.	3.62	2 of 9 (3.81)
Y32A H35P	4.63 / 5.15 / 4.04	4.61	5 of 9 (5.08)
M34Y R101M Y105G	n.d. / n.d. / n.d.	n.d.	1 of 9 (4.13)
M34P W53L	3.85 / n.d. / n.d.	3.85	1 of 9 (4.07)
V64A Y105R F106P	4.41 / 3.99 / 2.88	3.76	1 of 9 (3.65)
G26W W53V D62A	n.d. / 5.58 / n.d.	5.58	2 of 9 (4.13)
F27A	4.69 / 4.04 / 5.56	4.77	7 of 9 (5.07)
S57A G102R Y108W	1.76 / 1.95 / 2.07	1.93	5 of 9 (4.43)
N54A S55D Y60S	4.83 / 5.32 / 5.39	5.18	7 of 9 (5.10)
N54Y G59N G103T	n.d. / 4.76 / 3.80	4.28	2 of 9 (4.11)
G26K F27V D30V	n.d. / n.d. / n.d.	n.d.	0 of 9
F27M W53S I58K	n.d. / n.d. / n.d.	n.d.	0 of 9
D31F Y32D G59M	n.d. / n.d. / n.d.	n.d.	3 of 9 (5.11)
R101H D107I	5.65 / 3.90 / n.d.	4.78	2 of 9 (4.87)
D31W H35P W53K	4.39 / 4.78 / 5.24	4.80	3 of 9 (5.03)
W53V A61H Y105R	n.d. / 5.99 / 4.78	5.38	4 of 9 (3.84)
Y32D G50F	n.d. / n.d. / n.d.	n.d.	0 of 9
A33P R101Q	n.d. / n.d. / n.d.	n.d.	0 of 9
H35W S52M Y60K	n.d. / n.d. / n.d.	n.d.	3 of 9 (3.81)
G50N G100R G104I	5.18 / 6.69 / 5.12	5.66	5 of 9 (4.39)
F29Y W53R S63T	3.16 / 3.21 / n.d.	3.19	3 of 9 (4.52)
T28I K65L G100C	5.08 / n.d. / 3.75	4.42	4 of 9 (4.83)
G50Y S55Q	n.d. / n.d. / n.d.	n.d.	3 of 9 (4.13)
Y32Q A33K A61D	n.d. / n.d. / n.d.	n.d.	0 of 9
A61N F106I Y108F	n.d. / 5.73 / 4.73	5.23	2 of 9 (3.74)
A33Q A61D G100Q	n.d. / 4.18 / 4.06	4.12	4 of 9 (4.55)
F27Q Y32T S57G	4.65 / n.d. / n.d.	4.65	3 of 9 (4.52)
S52D N54F S55R	n.d. / n.d. / n.d.	n.d.	4 of 9 (4.64)
D31H S52T D62G	3.65 / 2.92 / 3.71	3.43	1 of 9 (4.52)
M34D D62S V64Q	6.42 / n.d. / n.d.	6.42	2 of 9 (5.02)
S55G S63P G100S	3.69 / n.d. / n.d.	3.69	3 of 9 (4.34)
G26Y N54T G59L	4.26 / n.d. / n.d.	4.26	0 of 9
G26S G59K Y60I	5.87 / 4.08 / 4.59	4.85	5 of 9 (4.21)
G26R T28N	4.71 / n.d. / n.d.	4.71	2 of 9 (3.69)

A selection of 2 entries from above:

changes	log10 Kd, replicates	mean, log10 nM	control signals
G26K F27V D30V	n.d. / n.d. / n.d.	n.d.	0 of 9
G50Y S55Q	n.d. / n.d. / n.d.	n.d.	3 of 9 (4.13)